Biological target: T1, Human Thrombin (Homo sapiens, UniProt P00734)
T1 construct: Determination of Anti-Thrombin (Factor IIa) Activity; purchased Calbiochem
Test: Determination of Anti-Thrombin (Factor IIa) Activity
Assay type: biochemical
Conditions: competitive inhibition; substrate Pefachrome Thr; pH 8.3
Method: The test compounds (40 μL) adjusted to various concentrations (0.25 to 100 μM) were incubated with Human Thrombin (Calbiochem) enzyme (5 nM) in 31 mM Tris buffer (pH 8.3) containing 81 mM sodium chloride and 0.63% bovine serum albumin (fraction V)(80 μL) at room temperature for about 30 minutes. 80 μL of Pefachrome® Thr (Pentapharm) was adjusted to various concentrations, from 62.5 μM to 1.25 mM. The activity was measured at about 37° C. by monitoring absorbance at 405 nm for about 15 minutes using a FLUOstar OPTIMA™. Control sample was the solvent alone. Each test compound was analyzed twice using 4 concentrations of compound plus control (in duplicate) with 5 concentrations of substrate (50, 100, 200, 300 and 500 μM). The specific activity (ΔA405/min/nM enzyme) was determined for each data point. The Ki for competitive inhibition was then determined for each test compound using the Enzyme Kinetics module of Sigmaplot 8.0 (SPSS).

Ki: 0.022 µM
SMILES: Cc1ncc(CNc2ccc(C(=N)N)cc2)c(CF)c1OCc1cccc(C(=N)N)c1 [Compound 108, 4-{[4-Fluoromethyl-5-(3-amidine-benzyloxy)-6-methyl-pyridin-3-ylmethyl]-amino}-benzamidine]

— patent publication US7812037B2, “Dual antiplatelet/anticoagulant pyridoxine analogs” (Medicure International, Inc., priority 2004, dated 2010)
